Experimental data published in ChEMBL document CHEMBL5728058, “3-(carboxymethyl)-8-amino-2-oxo-1,3-diaza-spiro-[4.5]-decane derivatives” (2020).

Sequences of proteins named here, by UniProt entry; tags and fusion partners are left off. A change or cut given only in a name is not applied to a line headed by its entry.
UniProt P41146: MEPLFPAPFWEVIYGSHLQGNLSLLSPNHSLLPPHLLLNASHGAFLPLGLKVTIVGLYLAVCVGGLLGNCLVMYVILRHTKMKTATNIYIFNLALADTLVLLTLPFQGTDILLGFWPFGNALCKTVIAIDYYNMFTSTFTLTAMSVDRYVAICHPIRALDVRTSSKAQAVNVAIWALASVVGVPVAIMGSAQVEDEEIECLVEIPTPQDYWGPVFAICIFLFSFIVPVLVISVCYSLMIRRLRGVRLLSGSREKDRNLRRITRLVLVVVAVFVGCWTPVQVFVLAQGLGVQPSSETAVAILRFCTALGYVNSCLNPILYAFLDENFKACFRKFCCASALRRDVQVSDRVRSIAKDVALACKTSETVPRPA
UniProt P35372, whole entry, looked up: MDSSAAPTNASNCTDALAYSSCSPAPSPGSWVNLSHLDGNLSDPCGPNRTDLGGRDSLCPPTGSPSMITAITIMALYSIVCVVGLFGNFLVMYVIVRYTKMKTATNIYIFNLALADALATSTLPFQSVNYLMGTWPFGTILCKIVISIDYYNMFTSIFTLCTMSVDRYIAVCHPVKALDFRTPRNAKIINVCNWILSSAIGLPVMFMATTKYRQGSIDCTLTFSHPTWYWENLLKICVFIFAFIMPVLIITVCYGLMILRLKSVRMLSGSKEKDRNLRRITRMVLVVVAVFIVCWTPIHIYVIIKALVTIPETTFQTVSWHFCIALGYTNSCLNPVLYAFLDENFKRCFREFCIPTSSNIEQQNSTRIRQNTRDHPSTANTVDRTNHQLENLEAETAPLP

Tests used:
Nociceptin receptor = Nociceptin receptor (Homo sapiens, UniProt P41146); assay: Human Nociceptin/Orphanin FQ Peptide (hNOP) Receptor Binding Assay: The hNOP receptor binding assay was performed as homogeneous SPA-assay (scintillation proximity assay) using the assay buffer 50 mM TRIS-HCl, 10 mM MgCl2, 1 mM EDTA (pH 7.4). The final assay volume (250 μl/well) included 0.5 nM of [leucyl-3H]nociceptin as ligand (PerkinElmer Life Sciences, Inc. Boston, Mass., USA), and either test
Mu-type opioid receptor = Mu-type opioid receptor (Homo sapiens, UniProt P35372); assay: Human Mu-Opioid Peptide (hMOP) Receptor Binding Assay: The hMOP receptor binding assay was performed as homogeneous SPA-assay (scintillation proximity assay) using the assay buffer 50 mM TRIS-HCl (pH 7.4) supplemented with 0.052 mg/ml bovine serum albumin (Sigma-Aldrich Co., St. Louis, Mo.). The final assay volume (250 μl/well) included 1 nM of [N-allyl-2,3-3H]naloxone as ligand (PerkinElmer Life

Compound | Ki (Nociceptin receptor) | Ki (Mu-type opioid receptor)
CN(CC(N)=O)C(=O)CN1C[C@]2(CC[C@@](c3ccccc3)(N(C)C)CC2)N(CC2CCC2)C1=O | 465 nM | 210 nM
COCCN1C(=O)N(CC(=O)NCC(N)=O)C[C@]12CC[C@](c1ccccc1)(N(C)C)CC2 | 124 nM | 480 nM
CN(C)[C@]1(c2ccccc2)CC[C@]2(CC1)CN(CC(=O)NCCO)C(=O)N2CC1CC1 | 13 nM | 145 nM
Cc1cc(NC(=O)CN2C[C@]3(CC[C@](c4ccccc4)(N(C)C)CC3)N(CC3CCC3)C2=O)ccn1 | 3.3 nM | 83 nM
CN(C)[C@]1(c2ccccc2)CC[C@@]2(CC1)CN(CC(N)=O)C(=O)N2 | 465 nM | 1810 nM
CCCN1C(=O)N(CC(=O)N2CCS(=O)(=O)CC2)C[C@]12CC[C@@](NC)(c1ccccc1)CC2 | 305 nM | 1020 nM
CN(C)[C@]1(c2ccccc2)CC[C@]2(CC1)CN(CC(N)=O)C(=O)N2CC1CCC1 | 4.4 nM and 2 nM | 6.2 nM and 24 nM
CN[C@]1(c2ccccc2)CC[C@]2(CC1)CN(CC(=O)NC(C)(C)C(N)=O)C(=O)N2CC1CCC1 | 68.5 nM | 160 nM
COCCOCCOCCOCCOCCNC(=O)CN1C[C@]2(CC[C@](c3ccccc3)(N(C)C)CC2)N(CC2CCC2)C1=O | 22 nM | 125 nM
CN(C)[C@]1(c2ccccc2)CC[C@]2(CC1)CN(CC(=O)NCCO)C(=O)N2CC1(O)CCC1 | 38.5 nM | 120 nM
CN[C@]1(c2ccccc2)CC[C@]2(CC1)CN(CC(=O)NCCOCCOCCOCCOCCOCCOCCOC)C(=O)N2CC1CCC1 | 265 nM | 1200 nM
CN(C)[C@]1(c2ccccc2)CC[C@]2(CC1)CN(CC(=O)NCCO)C(=O)N2CC1(C)CCC1 | 18 nM | 92 nM
CN(C)C(=O)CN1C(=O)N(CC(=O)NCCO)C[C@]12CC[C@](c1ccccc1)(N(C)C)CC2 | 215 nM | 515 nM
CN(CC(N)=O)C(=O)CN1C[C@]2(CC[C@](c3ccc(F)cc3)(N(C)C)CC2)N(CC2CCC2)C1=O | 15 nM | 180 nM
CNC(=O)c1ccnc(NC(=O)CN2C[C@]3(CC[C@](c4ccccc4)(N(C)C)CC3)N(CC3CCC3)C2=O)c1 | 3.5 nM | 25 nM
CCCN1C(=O)N(CC(=O)N2CCS(=O)(=O)CC2)C[C@]12CC[C@](c1ccccc1)(N(C)C)CC2 | 22 nM | 97 nM
CN(C)[C@]1(c2ccccc2)CC[C@]2(CC1)CN(CC(=O)Nc1cc([S+](C)[O-])ccn1)C(=O)N2CC1CCC1 (some centres undefined) | 4.9 nM | 55.5 nM
COCCN1C(=O)N(CC(=O)Nc2ccncn2)C[C@]12CC[C@](c1ccccc1)(N(C)C)CC2 | 110 nM | 850 nM
CN[C@]1(c2ccccc2)CC[C@]2(CC1)CN(CC(=O)NCCOC)C(=O)N2CC1(O)CCC1 | 280 nM | 400 nM
CN(C)C(=O)CN1C(=O)N(CC(=O)Nc2ccncn2)C[C@]12CC[C@](c1ccccc1)(N(C)C)CC2 | 155 nM | 1210 nM
CN(CC(N)=O)C(=O)CN1C[C@]2(CC[C@](c3ccccc3)(N(C)C)CC2)N(CC2COC2)C1=O | 170 nM | 2900 nM
CNC(=O)CN1C[C@]2(CC[C@](c3ccccc3)(N(C)C)CC2)N(CC(=O)N(C)C)C1=O | 170 nM | 1120 nM
CCCN1C(=O)N(CC(=O)NCC(N)=O)C[C@]12CC[C@](c1ccccc1)(N(C)C)CC2 | 43 nM | 130 nM
CN(C)[C@]1(c2ccccc2)CC[C@@]2(CC1)NC(=O)N(CC(=O)Nc1ccccc1)C2=O | 195 nM | 1610 nM
COc1cc(NC(=O)CN2C[C@]3(CC[C@](c4ccccc4)(N(C)C)CC3)N(CC3CCC3)C2=O)ncn1 | 11 nM | 122 nM
CN(C)[C@]1(c2ccccc2)CC[C@]2(CC1)CN(CC(N)=O)C(=O)N2 | 330 nM | 6020 nM
COCCOCCOCCOCCOCCOCCNC(=O)CN1C[C@]2(CC[C@](c3ccccc3)(N(C)C)CC2)N(CC2CCC2)C1=O | 52.3 nM | 303 nM

Several values for one entry are separate records, joined by “and”; a condition that tells them apart may be missing. Equal entries are not always repeated.
